How the values of series [1] were obtained: The thermal stability of drugs is an essential property necessary to control the formulation method of the finished drug. […] Both the temperature at which decomposition begins (Tonset) and the temperature at which mass loss accelerates to its maximum (Tmax) were identified. […]
(§1) XRD, thermal stability (TG), phase transition temperatures (DSC), specific rotation, solubility in water, and lipophilicity were also determined. […]
Thermal stability was assessed using thermogravimetric analyses performed on a Netzsch thermomicrobalance TG 209 F1 Libra. The analysis was conducted under oxidative conditions, with a nitrogen flow (as protective gas) of 10 mL/min, an airflow of 25 mL/min, and a temperature range of 25 to 1000 °C. Samples of roughly 5 mg weight were heated at 10°/min. The onset decomposition temperature was calculated using the intersection of TG curve tangents. The temperatures associated with the quickest sample weight loss were calculated using the first derivative of the TG curve (DTG curve). […]

How the values of series [2] were obtained: measurements were made with a 1 nm accuracy in a 10 mm quartz cell over the 190 to 400 nm […]
as §1
Thermal stability was assessed using thermogravimetric analyses performed on a Netzsch thermomicrobalance TG 209 F1 Libra. The analysis was conducted under oxidative conditions, with a nitrogen flow (as protective gas) of 10 mL/min, an airflow of 25 mL/min, and a temperature range of 25 to 1000 °C. Samples of roughly 5 mg weight were heated at 10°/min. The onset decomposition temperature was calculated using the intersection of TG curve tangents. The temperatures associated with the quickest sample weight loss were calculated using the first derivative of the TG curve (DTG curve).
Phase transformation temperatures were registered using a DSC 250 from TA Instruments' Discovery DSC Series (New Castle, Delaware, USA). The aluminum pan with a crimped lid was loaded with the samples, which weighed 5 mg on average. The nitrogen atmosphere used for the measurements was 20 mL/min. […]
The measurement of specif ic rotation [α] was determined with an AUTOPOL IV polarimeter provided by Rudolph Research Analytical (Hackettstown, NJ, USA). […] The optical rotation was determined at the accuracy of 0.001 o at 20.0 ± 0.1 °C and 589 nm wavelength in a TempTrolTM […]
The source holds these as a separate data set.

The procedure of series [3]: Lipophilicity is essential for predicting the hydrophobicity and partitioning of drugs in biological systems. Therefore, the test was prepared using the shake-flask method.
The source holds these as a separate data set.

A short description of series [4]: Permeation of the active substance through the skin, Franz diffusion cell. The conditions noted are these: API in emulsion-based gel formulation. The format is in vitro ADME, pig. The text has this:
The steady-state flux was estimated from the slope of the linear portion of the plot of cumulative mass in the acceptor phase over time.

“L-phenylalanine ethyl ester ibuprofenate [[PheOEt][IBU]]”: the “Tonset, the onset temperature of the thermal degradation” value in series [1] worked out at 160.8 °C. In series [1] (TG, oxidative conditions), the “T5%, decomposition temperature, 5% weight loss of the initial mass” value worked out at 141.6 °C and the “T50%, decomposition temperature, 50% weight loss of the initial mass” value was 221.7 °C. In series [2], the Solubility in water was 716 ± 80 µg/mL. In series [3], the log p was determined as 1.336 ± 0.046. The “Cumulative mass after 24 h of permeation, API named in text” value in series [4] stood at 948.6 ± 87.5 µg IBU/cm^2.

These data come from PMC10217311 (Gels, 2023).
